## Ab-95 light chain CDR variants: yeast mating affinities

Source: Engelhart et al. 2022 (doi:10.1038/s41597-022-01779-4), MIT Lincoln Laboratory and A-Alpha Bio; data file from the FLAb repository.

Target: peptide PDVDLGDISGINAS, taken from heptad repeat 2 (HR2) of SARS-CoV-2 spike.

Ab-95 is the parent antibody, in scFv form: VH, then a (GGGGS)3 linker, then VL. The heavy chain is unchanged in all variants.
VH: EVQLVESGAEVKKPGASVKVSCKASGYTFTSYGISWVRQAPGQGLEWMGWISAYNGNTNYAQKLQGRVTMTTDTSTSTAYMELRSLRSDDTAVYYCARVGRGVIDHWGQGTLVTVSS
VL: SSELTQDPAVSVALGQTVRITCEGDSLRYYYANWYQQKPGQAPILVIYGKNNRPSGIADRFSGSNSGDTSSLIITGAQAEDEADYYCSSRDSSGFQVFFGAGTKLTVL

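Variants in AAYL52 differ from the parent at up to three CDR positions; double and triple changes were sampled at random. AlphaSeq pools MATa yeast showing the antibodies with MATalpha yeast showing the peptide. After mating in shaken culture at 30 °C for 16 h, diploids were selected and their barcode pairs sequenced. The ratio of observed to expected reads was calibrated, replicate by replicate, on BCL2-family standards whose Kd was known from biolayer interferometry. Mating was done three times.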

The whole VL of each variant is written out.
Scale: log10 of Kd in nM, estimated from mating counts; low values are strong binders.
Replicates are averaged; those with no signal do not enter the mean.
An entry "no signal" has no value in the source: the pair was not observed among the diploids in any replicate. This suggests poor binding but is not conclusive.

| VL | mean, log10 nM | replicates with signal |
|---|---|---|
| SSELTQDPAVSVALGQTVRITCEGDSLRRYYANWYQQKPGQAPILVIYGKNNRPSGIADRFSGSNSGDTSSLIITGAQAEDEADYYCISRDSSGFQVFFGAGTKLTVL | 3.86 | 1/3 |
| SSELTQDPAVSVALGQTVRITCPGDSLRYYYNNWYQQKPGQAPILVIYGKNNRPSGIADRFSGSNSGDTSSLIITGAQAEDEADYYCSSRDSSGFQVKFGAGTKLTVL | 4.30 | 2/3 |
| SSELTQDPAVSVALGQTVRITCEGDSSRYYIANWYQQKPGQAPILVIYGKNNRPSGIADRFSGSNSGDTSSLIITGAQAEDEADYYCSSVDSSGFQVFFGAGTKLTVL | 4.76 | 2/3 |
| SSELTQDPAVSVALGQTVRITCEGDSLRYYYANWYQQKPGQAPILVIYGKNMRPYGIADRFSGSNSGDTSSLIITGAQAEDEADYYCSSRDSSGFQVFFGAGTKLTVL | 2.28 | 3/3 |
| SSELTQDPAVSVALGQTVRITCEGDCKRYYYANWYQQKPGQAPILVIYGKNNRPSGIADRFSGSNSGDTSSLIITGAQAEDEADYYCSSRDSSGFQVFFGAGTKLTVL | 2.97 | 1/3 |
| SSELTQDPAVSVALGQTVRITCEGDSLRYYYALWYQQKPGQAPILVIYGKNNRPSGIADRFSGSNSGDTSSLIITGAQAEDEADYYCSSRDSSGFQIFFGAGTKLTVL | no signal | 0/3 |
| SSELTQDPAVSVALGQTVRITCEGDSLKYYYANWYQQKPGQAPILVIYGKNNRPSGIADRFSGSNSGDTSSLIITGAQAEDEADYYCSDRDSSGFQEFFGAGTKLTVL | no signal | 0/3 |
| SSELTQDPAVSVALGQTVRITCEGDSLRYYYQHWYQQKPGQAPILVIYGKNNRPSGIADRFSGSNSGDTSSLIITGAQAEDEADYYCSSNDSSGFQVFFGAGTKLTVL | 3.77 | 2/3 |
| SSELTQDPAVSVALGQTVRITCEADKLRYYYANWYQQKPGQAPILVIYGKNNRPSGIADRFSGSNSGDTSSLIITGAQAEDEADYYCSSRDSLGFQVFFGAGTKLTVL | no signal | 0/3 |
| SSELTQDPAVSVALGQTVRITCEGDSLRYYYANWYQQKPGQAPILVIYGKMNWPSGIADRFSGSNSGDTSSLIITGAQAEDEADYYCSSRDSSGFQRFFGAGTKLTVL | 4.30 | 2/3 |
| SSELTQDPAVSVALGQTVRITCEGDSLSYYYLNWYQQKPGQAPILVIYGKNNRPSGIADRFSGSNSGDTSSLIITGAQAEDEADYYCSSRDSPGFQVFFGAGTKLTVL | no signal | 0/3 |
| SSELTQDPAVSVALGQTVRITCEGDSLRYYYANWYQQKPGQAPILVIYGKSNRPHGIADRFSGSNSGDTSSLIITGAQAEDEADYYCGSRDSSGFQVFFGAGTKLTVL | 3.33 | 3/3 |
| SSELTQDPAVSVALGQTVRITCEGDSLRYYYSNWYQQKPGQAPILVIYGKCNRPSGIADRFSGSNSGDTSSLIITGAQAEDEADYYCSSRDSSGMQVFFGAGTKLTVL | 4.18 | 3/3 |
| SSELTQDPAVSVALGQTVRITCEGDSLRYYYAWWYQQKPGQAPILVIYGKNNRPMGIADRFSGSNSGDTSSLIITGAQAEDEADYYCSSRDSWGFQVFFGAGTKLTVL | 4.82 | 2/3 |
| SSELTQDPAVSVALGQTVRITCEHDSLRYQYANWYQQKPGQAPILVIYGKNNQPSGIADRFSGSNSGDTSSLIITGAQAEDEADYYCSSRDSSGFQVFFGAGTKLTVL | 2.72 | 3/3 |
| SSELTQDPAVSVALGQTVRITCEGDDLWYYYANWYQQKPGQAPILVIYGKNNRPSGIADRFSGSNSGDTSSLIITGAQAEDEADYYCSSRRSSGFQVFFGAGTKLTVL | no signal | 0/3 |
| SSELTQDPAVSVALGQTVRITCEHDSLRYYYANWYQQKPGQAPILVIYGKNNRPSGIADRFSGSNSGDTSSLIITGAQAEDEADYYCSDRDNSGFQVFFGAGTKLTVL | 2.66 | 3/3 |
| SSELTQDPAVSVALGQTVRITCEGDSLRYYYANWYQQKPGQAPILVIYGKNERPSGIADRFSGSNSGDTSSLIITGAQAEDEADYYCSSRDSSGFQVCFGAGTKLTVL | 3.46 | 3/3 |
| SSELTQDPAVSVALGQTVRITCEGDSLRITYANWYQQKPGQAPILVIYGKNNRPSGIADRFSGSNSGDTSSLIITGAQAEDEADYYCSSRDSSWFQVFFGAGTKLTVL | no signal | 0/3 |
| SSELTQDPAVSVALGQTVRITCEGDSLRYYYPQWYQQKPGQAPILVIYGKNNRPSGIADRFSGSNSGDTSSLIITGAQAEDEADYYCSSRDSSGYQVFFGAGTKLTVL | 2.93 | 3/3 |

Extract of 2 entries:

VL,"mean, log10 nM",replicates with signal
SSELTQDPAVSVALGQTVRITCEGDDLWYYYANWYQQKPGQAPILVIYGKNNRPSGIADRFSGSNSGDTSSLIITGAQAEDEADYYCSSRRSSGFQVFFGAGTKLTVL,no signal,0/3
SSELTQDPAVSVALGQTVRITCEGDSLRYYYANWYQQKPGQAPILVIYGKMNWPSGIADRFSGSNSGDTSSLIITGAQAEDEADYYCSSRDSSGFQRFFGAGTKLTVL,4.30,2/3

For reference, the parent read 2.31 as the reference entry and 2.25 as a member of this library.
Empty control strains, which show no peptide, gave a signal in 28% of pairings with library AAYL52; the median was 3.91 and 95% of these signals were weaker than 2.90. No background was subtracted.